Reference: ChEMBL document CHEMBL3244082, “5-allyl-9-oxobenzomorphans. 3. Potent narcotic antagonists and analgesics-antagonists in the series of substituted 2',9beta-dihydroxy-6,7-benzomorphans” (1977)

Test system: Rattus norvegicus
Experiment: Narcotic antagonist activity in sc dosed rat assessed as reversal of oxymorphone-induced loss of righting reflex

Row | Compound | ED50
1 | C=CC[C@]12CCN(CC3CC3)[C@H](Cc3ccc(O)cc31)[C@@]2(C)O.O=C(O)C(O)C(O)C(=O)O | 0.005 mg/kg
2 | C=CC[C@]12CCN(CC3CC3)[C@H](Cc3ccc(O)cc31)[C@@]2(C)O | 0.02 mg/kg
